Measurements from ChEMBL document CHEMBL3112427, “Insights into the mechanism of streptonigrin-induced protein arginine deiminase inactivation” (Bioorg Med Chem, 2014).

Protein sequences, listed by entry. Tags and fused reporters are not part of them.
UniProt Q9UM07, whole entry: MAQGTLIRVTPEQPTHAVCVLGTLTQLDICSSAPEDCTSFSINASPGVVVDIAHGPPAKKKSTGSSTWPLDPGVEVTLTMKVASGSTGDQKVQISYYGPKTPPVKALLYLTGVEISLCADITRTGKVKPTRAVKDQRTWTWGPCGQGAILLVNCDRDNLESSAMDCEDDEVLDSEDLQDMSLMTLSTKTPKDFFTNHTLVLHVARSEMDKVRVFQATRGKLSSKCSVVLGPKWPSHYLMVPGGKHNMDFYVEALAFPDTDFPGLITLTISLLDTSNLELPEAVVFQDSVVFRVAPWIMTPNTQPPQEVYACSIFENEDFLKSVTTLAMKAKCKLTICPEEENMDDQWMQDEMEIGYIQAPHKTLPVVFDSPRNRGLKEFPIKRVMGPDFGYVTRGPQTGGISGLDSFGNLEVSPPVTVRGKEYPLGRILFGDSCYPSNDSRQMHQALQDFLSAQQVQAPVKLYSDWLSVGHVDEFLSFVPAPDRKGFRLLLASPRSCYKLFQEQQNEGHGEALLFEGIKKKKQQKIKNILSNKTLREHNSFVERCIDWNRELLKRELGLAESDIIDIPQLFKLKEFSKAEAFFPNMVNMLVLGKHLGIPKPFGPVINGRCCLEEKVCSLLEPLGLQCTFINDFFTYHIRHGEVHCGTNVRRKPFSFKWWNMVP

Biological target: Protein-arginine deiminase type-4 (Homo sapiens, UniProt Q9UM07)
Test: Inhibition of recombinant wild-type PAD4 (unknown origin) using N-alpha-Benzoyl-L-arginine ethyl ester as substrate preincubated for 15 mins followed by substrate addition measured after 15 mins by COLDER assay

- IC50: 240 nM
SMILES: NC1=CC(=O)c2ccc(-c3cccc(C(=O)O)n3)nc2C1=O
